For the test, the system named is Jurkat (Clone E6-1) cells. Kind of test: Inhibition on Jurkat cell proliferation (CellTiter-Glo cell viability). The settings on record: 72 hours culture. The method, then:
The following method was used to determine the effect of the compounds of the present disclosure on Jurkat cell proliferation. Jurkat (Clone E6-1) cells were purchased from the Cell Resource Center of Shanghai Institutes for Biological Sciences, Chinese Academy of Sciences, and were cultured in RPMI 1640 medium containing 10% fetal bovine serum, 100 U penicillin, and 100 µg/mL streptomycin. Cell viability was measured using a CellTiter-Glo® Luminescent Cell Viability Assay kit (Promega, catalog number G7573).
The experiment was performed according to the kit's manual, briefly summarized as follows: test compounds were first dissolved in DMSO to prepare 10 mM stock solutions, which were then diluted with medium to prepare test samples. The final concentration range of the compounds was from 10000 nM to 1.52 nM. Cells in the logarithmic growth phase were seeded into a 96-well cell culture plate at a density of 1000 cells per well, and test compounds were added. The cells were cultured in a 37°C CO2 incubator for 72 hours. After culturing, 50 µL of CellTiter-Glo detection reagent was added to each well, the plate was shaken for 5 minutes, and allowed to stand for 10 minutes. The luminescence of each well was then measured using a microplate reader in Luminescence mode. The percentage inhibition at each concentration point was calculated by comparison with the control group (0.1% DMSO). Nonlinear regression analysis of compound concentration logarithm versus inhibition rate was performed using GraphPad Prism 9 software to obtain the IC50 values of the compounds for inhibiting cell proliferation, as shown in Table 1. Table 1 IC50 Data for Inhibition on Jurkat Cell Proliferation by the Compounds of the Present Disclosure
Background: In ATP-based viability assays light output follows the ATP content of the culture.
One may read the IC50 as the concentration at which inhibition is half-maximal. Read a low IC50 as greater potency in that assay. Consider `CCOc1cncc(-c2ccc(NC(=O)C3(c4ccnc(NS(=O)(=O)C5CC5)n4)[C@@H]4COC[C@@H]43)cc2)n1` (stereo partly shown), for which the IC50 was 0.0608 µM. `CCOc1cncc(-c2cnc(C(=O)NC3(c4nccc(NS(=O)(=O)C5CC5)n4)CC4CC4C3)s2)n1` (stereo not shown) had an IC50 of 0.0121 µM. As to `CCOc1cncc(-c2ccc(NC(=O)C3(c4cnnc(NS(=O)(=O)C5CC5)c4)CC4CC4C3)cc2)n1` (stereo not shown), the IC50 was found to be 0.0301 µM. In the case of `CCOc1cncc(-c2ccc(NC(=O)C3(c4nccc(NS(=O)(=O)C5CC5)n4)Cc4ccccc4C3)nc2)n1`, the IC50 was determined as 0.0408 µM. `CCOc1cncc(-c2ccc(NC(=O)C3(c4cc(NS(=O)(=O)C5CC5)ncn4)CC4CCC(C3)O4)cc2)n1` (stereo not shown) yielded an IC50 of 0.00137 µM. Under `CCOc1cncc(-c2ccc(NC(=O)C3(c4cc(NS(=O)(=O)C5CC5)ncn4)CC4CCC(C3)O4)nc2)n1` (stereo not shown) stands 0.0041 µM. Under `CCOc1cncc(-c2ccc(C(=O)NC3(c4cc(NS(=O)(=O)C5CC5)ncn4)CC4CC4C3)cc2)n1` (stereo not shown) stands 0.0319 µM; under `CCOc1cncc(-c2ccc(NC(=O)C3(c4ccnc(NS(=O)(=O)C5CC5)n4)CCc4nn(C)cc4C3)cc2)n1` (stereo not shown), 0.0217 µM. Compound `CCOc1cncc(-c2ccc(NC(=O)C3(c4ccnc(NS(=O)(=O)C5CC5)n4)C[C@H]4CC[C@@H](C3)O4)c(OC)c2)n1` (stereo partly shown) gave an IC50 of 0.0546 µM. Compound `CCOc1cncc(-c2sc(C(=O)NC3(c4cc(NS(=O)(=O)C5CC5)ncn4)CC4CC4C3)nc2C)n1` (stereo not shown) showed an IC50 of 0.00249 µM. `CCOc1cncc(-c2ccc(NC(=O)C3(c4cc(NS(=O)(=O)C5CC5)ncn4)[C@@H]4CCC[C@@H]43)c(F)c2)n1` (stereo partly shown) came in with an IC50 of 0.0166 µM. Compound `CCOc1cncc(-c2cnc(C(=O)NC3(c4ccnc(NS(=O)(=O)C5CC5)n4)CC4CC4C3)s2)n1` (stereo not shown) came in with an IC50 of 0.0814 µM.

Turning to `CCOc1cncc(-c2nnc(C(=O)NC3(c4cc(NS(=O)(=O)C5CC5)ncn4)CC4CC4C3)s2)n1` (stereo not shown), the IC50 came to 0.0083 µM.

In the case of `CCOc1cncc(-c2ccc(NC(=O)C3(c4cc(NS(=O)(=O)C5CC5)ncn4)[C@@H]4CCC[C@@H]43)cc2)n1` (stereo partly shown), the IC50 was 0.0033 µM.

`CCOc1cncc(-c2ccc(NC(=O)C3(c4cc(NS(=O)(=O)C5CC5)ncn4)CC4CC4C3)nc2)n1` (stereo not shown) displayed an IC50 of 0.00696 µM.

On to `CCOc1cncc(-c2ccc(NC(=O)C3(c4cc(NS(=O)(=O)C5CC5)ncn4)CC4CCCC4C3)cc2)n1` (stereo not shown), for which the half-maximal inhibitory concentration (IC50) turned out to be 0.0348 µM. On to `CCOc1cncc(-c2ccc(NC(=O)C3(c4cc(NS(=O)(=O)C5CC5)ccn4)Cc4nccnc4C3)cc2)n1`, for which the IC50 worked out at 0.0052 µM. `Cc1ccn2ncc(-c3ccc(NC(=O)C4(c5cc(NS(=O)(=O)C6CC6)ncn5)CC5CC5C4)cc3)c2c1` (stereo not shown) gave an IC50 of 0.0134 µM. Under `COc1cncc(-c2cnc(C(=O)NC3(c4cc(NS(=O)(=O)C5CC5)ncn4)CC4CC4C3)s2)n1` (stereo not shown) stands 0.0244 µM; under `CCOc1cncc(-c2ccc(NC(=O)C3(c4cc(NS(=O)(=O)CC)ncn4)CC4CCC(C3)O4)cc2)n1` (stereo not shown), 0.0119 µM.

`CCOc1cncc(-c2ccc(NC(=O)C3(c4nccc(NS(=O)(=O)C5CC5)n4)C[C@H]4CC[C@@H](C3)O4)nc2)n1` (stereo partly shown) registered an IC50 of 0.00324 µM.

Regarding `CCOc1cncc(-c2cnc(C(=O)NC3(c4cc(NS(=O)(=O)C5CC5)ncn4)C[C@H]4CC[C@@H](C3)O4)s2)n1` (stereo partly shown), the IC50 stood at 0.00429 µM. Turning to `CCOc1cncc(-c2ccc(NC(=O)C3(c4nccc(NS(=O)(=O)C5CC5)n4)C[C@H]4CC[C@@H](C3)O4)c(OC)c2)n1` (stereo partly shown), the IC50 is 0.0141 µM. In the case of “3-(4-(cyclopropanesulfonamido)pyrimidin-2-yl)-N-(4-(6-ethoxypyrazin-2-yl)-2,6-difluorophenyl) bicyclo[3.1.0]hexane-3-carboxamide”, the IC50 was 0.0849 µM. Turning to `CCOc1cncc(-c2ccc(NC(=O)C3(c4cc(NS(=O)(=O)C(F)F)ccn4)CC4CC4C3)nc2)n1` (stereo not shown), the IC50 amounted to 0.00911 µM.

Take `CCOc1cncc(-c2ccc(NC(=O)C3(c4cc(NS(=O)(=O)C5CC5)ncn4)CC4CCC(C3)O4)c(OC)c2)n1` (stereo not shown): the IC50 came out at 0.00917 µM. The compound `O=C(Nc1ccc(-c2cnn3ccc(Cl)cc23)cc1)C1(c2nccc(NS(=O)(=O)C3CC3)n2)CC2CC2C1` (stereo not shown) gave an IC50 of 0.0242 µM. Take `CCOc1cncc(-c2ccc(NC(=O)C3(c4ccnc(NS(=O)(=O)C5CC5)c4)CC4CC4C3)cc2)n1` (stereo not shown): the IC50 was determined as 0.0637 µM.

`CCOc1cncc(-c2ncc(C(=O)NC3(c4cc(NS(=O)(=O)C5CC5)ncn4)C[C@H]4CC[C@@H](C3)O4)s2)n1` (stereo partly shown) gave an IC50 of 0.0379 µM.

The compound `O=C(NC1(c2cc(NS(=O)(=O)C3CC3)ncn2)CC2CC2C1)c1ncc(-c2cncc(C(F)(F)F)n2)s1` (stereo not shown) yielded an IC50 of 0.0215 µM. With `CCOc1cncc(-c2ccc(NC(=O)C3(c4cncc(NS(=O)(=O)C5CC5)c4)CC4CC4C3)cc2)n1` (stereo not shown), the IC50 amounted to 0.0488 µM. For `CCOc1cncc(-c2ccc(NC(=O)C3(c4nccc(NS(=O)(=O)C5CC5)n4)CC4CCC(C3)O4)cc2)n1` (stereo not shown), the IC50 is 0.00279 µM. For the compound `O=C(NC1(c2cc(NS(=O)(=O)C3CC3)ncn2)CC2CC2C1)c1ncc(-c2cncc(Cl)c2)s1` (stereo not shown), the IC50 is 0.0861 µM. Take `CCOc1cncc(-c2ccc(NC(=O)C3(c4cncc(NS(=O)(=O)C5CC5)n4)CC4CC4C3)cc2)n1` (stereo not shown): the IC50 came out at 0.0421 µM.

With `CCOc1cncc(-c2ccc(NC(=O)C3(c4nccc(NS(C)(=O)=O)n4)CC4CC4C3)nc2)n1` (stereo not shown), the IC50 is 0.0116 µM. `CCOc1cncc(-c2cnc(C(=O)NC3(c4cncc(NS(=O)(=O)C5CC5)n4)CC4CC4C3)s2)n1` (stereo not shown): the IC50 was found to be 0.0445 µM. `CCOc1cncc(-c2ccc(NC(=O)C3(c4ccnc(NS(=O)(=O)C5CC5)n4)C[C@H]4CC[C@@H](C3)O4)nc2)n1` (stereo partly shown) had an IC50 of 0.0148 µM.

On to `COc1ccn2ncc(-c3ccc(NC(=O)C4(c5cc(NS(=O)(=O)C6CC6)ncn5)CC5CC5C4)cc3)c2c1` (stereo not shown), for which the IC50 was found to be 0.0769 µM.

Compound `O=C(Nc1ccc(-c2cnn3ccc(Cl)cc23)cn1)C1(c2cc(NS(=O)(=O)C3CC3)ncn2)CC2CC2C1` (stereo not shown) came in with an IC50 of 0.0287 µM. The compound `CCOc1cncc(-c2ccc(NC(=O)C3(c4cc(NS(=O)(=O)C5CC5)ncn4)[C@@H]4CN(C)C[C@@H]43)cc2)n1` (stereo partly shown) had an IC50 of 0.0408 µM. Under `CCOc1cncc(-c2cnc(C(=O)NC3(c4nccc(NS(=O)(=O)C5CC5)n4)Cc4ccccc4C3)s2)n1` stands 0.0987 µM; under `CCOc1cncc(-c2ccc(NC(=O)C3(c4ccnc(NS(=O)(=O)C5CC5)n4)CC4CC4C3)nc2)n1` (stereo not shown), 0.0674 µM. Compound `O=C(NC1(c2cc(NS(=O)(=O)C3CC3)ncn2)C[C@H]2CC[C@@H](C1)O2)c1ncc(-c2cnn3ccc(Cl)cc23)s1` (stereo partly shown) came in with an IC50 of 0.0417 µM. Compound `CCOc1cncc(-c2ccc(NC(=O)C3(c4nccc(NS(=O)(=O)C5CC5)n4)CC4CC4C3)c(OC(F)(F)F)c2)n1` (stereo not shown) displayed an IC50 of 0.0269 µM. Turning to `CCOc1cncc(-c2ccc(NC(=O)C3(c4cc(NS(=O)(=O)C5CC5)ccn4)Cc4ccccc4C3)nc2)n1`, the IC50 amounted to 0.0272 µM. Under `CCOc1cncc(-c2ccc(C(=O)NC3(c4cc(NS(=O)(=O)C5CC5)ncn4)CC4CC4C3)nc2)n1` (stereo not shown) stands 0.0265 µM; under `CCOc1cncc(-c2ccc(NC(=O)C3(c4cc(NS(=O)(=O)CC)ncn4)CC4CC4C3)nc2)n1` (stereo not shown), 0.00479 µM; under `O=C(Nc1ccc(-c2cnn3ccc(Cl)cc23)cn1)C1(c2cc(NS(=O)(=O)C3CC3)ccn2)CC2CC2C1` (stereo not shown), 0.0169 µM. In turn, `CCOc1cncc(-c2ccc(NC(=O)C3(c4ccnc(NS(=O)(=O)C5CC5)n4)C[C@H]4CC[C@@H](C3)O4)c(F)c2)n1` (stereo partly shown) showed an IC50 of 0.0494 µM. Take `CCOc1cncc(-c2ccc(NC(=O)C3(c4cc(NS(C)(=O)=O)ncn4)CC4CC4C3)cc2)n1` (stereo not shown): the IC50 was 0.0156 µM.

For `CCOc1cncc(-c2ccc(NC(=O)C3(c4cc(NS(=O)(=O)C5CC5)ccn4)Cc4ccccc4C3)cc2)n1`, the IC50 amounted to 0.00845 µM. For the compound `CCOc1cncc(-c2ccc(NC(=O)C3(c4nccc(NS(=O)(=O)C5CC5)n4)CC4CC4C3)c(C)c2)n1` (stereo not shown), the IC50 worked out at 0.0572 µM.

As to `O=C(Nc1ccc(-c2cnn3ccc(Cl)cc23)cn1)C1(c2cncc(NS(=O)(=O)C3CC3)n2)CC2CC2C1` (stereo not shown), the IC50 was 0.0428 µM. In turn, `CCOc1cncc(-c2ccc(NC(=O)C3(c4ccnc(NS(=O)(=O)C5CC5)n4)CC4CC4C3)c(F)c2)n1` (stereo not shown) showed an IC50 of 0.0649 µM. `CCOc1cncc(-c2ccc(NC(=O)C3(c4nccc(NS(=O)(=O)C5CC5)n4)Cc4ccccc4C3)cc2)n1` came in with an IC50 of 0.0257 µM. Compound `CCOc1cncc(-c2cnc(NC(=O)C3(c4nccc(NS(=O)(=O)C5CC5)n4)CC4CC4C3)c(F)c2)n1` (stereo not shown) gave an IC50 of 0.0506 µM.

The compound `CCOc1cncc(-c2cnc(C(=O)NC3(c4cc(NS(=O)(=O)C5CC5)ccn4)CC4CC4C3)s2)n1` (stereo not shown) had an IC50 of 0.00297 µM. Under `CCOc1cncc(-c2ccc(NC(=O)C3(c4cncc(NS(=O)(=O)C5CC5)n4)CC4CCC(C3)O4)cc2)n1` (stereo not shown) stands 0.023 µM. In the case of `CCOc1cncc(-c2ccc(NC(=O)C3(c4nccc(NS(=O)(=O)C5CC5)n4)CC4CC4C3)c(C#N)c2)n1` (stereo not shown), the IC50 came out at 0.0334 µM. Compound `CCOc1cncc(-c2ccc(NC(=O)C3(c4cc(NS(=O)(=O)C5CC5)nc(C)n4)CC4CC4C3)cc2)n1` (stereo not shown) yielded an IC50 of 0.0402 µM. `CCOc1cncc(-c2ccc(NC(=O)C3(c4ccnc(NS(=O)(=O)C5CC5)n4)C4CN(C)CC43)cc2)n1` (stereo not shown) gave an IC50 of 0.0489 µM.

(Values after patent EP4840855A1, “SULFONAMIDE DERIVATIVE, PREPARATION METHOD THEREFOR AND USE THEREOF” (dated 2026).)
